Protein sequences, listed by entry. Tags and fused reporters are not part of them. Lines headed by an entry give the natural chain unless they say otherwise; changes in a name come on top.
UniProt P43490: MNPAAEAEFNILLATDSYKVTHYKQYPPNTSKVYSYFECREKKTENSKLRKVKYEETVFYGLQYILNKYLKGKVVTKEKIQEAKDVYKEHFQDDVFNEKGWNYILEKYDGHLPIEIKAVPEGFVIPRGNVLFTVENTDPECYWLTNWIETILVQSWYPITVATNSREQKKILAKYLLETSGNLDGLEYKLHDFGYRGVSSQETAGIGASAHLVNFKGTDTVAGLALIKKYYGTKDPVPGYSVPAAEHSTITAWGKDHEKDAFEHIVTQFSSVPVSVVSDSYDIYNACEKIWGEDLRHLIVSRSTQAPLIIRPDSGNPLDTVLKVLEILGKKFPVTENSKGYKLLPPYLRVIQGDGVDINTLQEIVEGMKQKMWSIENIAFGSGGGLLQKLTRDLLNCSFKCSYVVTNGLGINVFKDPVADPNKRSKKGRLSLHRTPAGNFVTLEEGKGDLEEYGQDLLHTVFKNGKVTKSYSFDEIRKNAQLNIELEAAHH

In patent publication US10730889B2, “Amido spirocyclic amide and sulfonamide derivatives” (Forma TM, LLC, priority 2012, dated 2020):

Assays:
NAMPT = NAMPT (Homo sapiens (Human), UniProt P43490); experiment: Biochemical inhibition assay (NAMPT enzymatic reaction, NMN quantified by mass spectrometry)
A2780 cells = experiment: In-vitro cell proliferation assay (SRB, 72 hours); format: cell-based; conditions: Homo sapiens, A2780, 72 h

Structure (SMILES)	IC50 (NAMPT) [nM]	IC50 (A2780 cells) [nM]
Cc1cc(C(=O)N2CCC3(CC2)CC3CNC(=O)c2cc3ccncc3o2)n(C)n1 (stereo not shown) [Example 116, N-[[6-(2,5-dimethylpyrazole-3-carbonyl)-6-azaspiro[2.5]octan-2-yl]methyl]furo[2,3-c]pyridine-2-carboxamide]	365	370
O=C(NCC1CC12CCN(C(=O)C1CC1)CC2)c1cc2ccncc2o1 (stereo not shown) [Example 130, N-[[6-(cyclopropanecarbonyl)-6-azaspiro[2.5]octan-2-yl]methyl]furo[2,3-c]pyridine-2-carboxamide]	2000	2000
Cc1cccc(C(=O)N2CCC3(CC2)CC3CNC(=O)c2cc3ccncc3o2)n1 (stereo not shown) [Example 234, N-[(6-(6-methylpyridine-2-carbonyl)-6-azaspiro[2.5]octan-2-yl]methyl]furo[2,3-c]pyridine-2-carboxamide]	161	164
Cc1nc(COc2ccc(C(=O)N3CCC4(CC3)CC4CNC(=O)c3cc4ccncc4o3)cc2)no1 (stereo not shown) [Example 244, N-[[6-[4-[(5-methyl-1,2,4-oxadiazol-3-yl)methoxy]benzoyl]-6-azaspiro[2.5]octan-2-yl]methyl]furo[2,3-c]pyridine-2-carboxamide]	26.4	26.1
O=C(NCC1CC12CCN(C(=O)c1ccc3ncccc3n1)CC2)c1cc2ccncc2o1 (stereo not shown) [Example 270, N-[[6-(1,5-naphthyridine-2-carbonyl)-6-azaspiro[2.5]octan-2-yl]methyl]furo[2,3-c]pyridine-2-carboxamide]	19.2	19.2
CC(C)(O)CCC(=O)N1CCC2(CC1)CC2CNC(=O)c1cc2ccncc2o1 (stereo not shown) [Example 283, N-[[6-(4-hydroxy-4-methyl-pentanoyl)-6-azaspiro[2.5]octan-2-yl]methyl]furo[2,3-c]pyridine-2-carboxamide]	362	362
O=C(NCC1CC12CCN(C(=O)Cc1ccccn1)CC2)c1cc2cnccc2[nH]1 (stereo not shown) [Example 285, N-[[6-[2-(2-pyridyl)acetyl]-6-azaspiro[2.5]octan-2-yl]methyl]-1H-pyrrolo[3,2-c]pyridine-2-carboxamide]	2000	2000
O=C(Cc1cnccn1)N1CCC2(CC1)CC2CNC(=O)N1Cc2ccncc2C1 (stereo not shown) [Example 287, N-[[6-(2-pyrazin-2-ylacetyl)-6-azaspiro[2.5]octan-2-yl]methyl]-1,3-dihydropyrrolo[3,4-c]pyridine-2-carboxamide]	24.5	24.5
O=C(COc1ccccc1)N1CCC2(CC1)CC2CNC(=O)N1Cc2ccncc2C1 (stereo not shown) [Example 289, N-[[6-(2-phenoxyacetyl)-6-azaspiro[2.5]octan-2-yl]methyl]-1,3-dihydropyrrolo[3,4-c]pyridine-2-carboxamide]	9.99	9.99
Cc1nn(C)c(C)c1C(=O)N1CCC2(CC1)CC2CNC(=O)c1cc2cnccc2[nH]1 (stereo not shown) [Example 293, N-[[6-(1,3,5-trimethylpyrazole-4-carbonyl)-6-azaspiro[2.5]octan-2-yl]methyl]-1H-pyrrolo[3,2-c]pyridine-2-carboxamide]	59.3	59.3
CC(=O)N1CCC(n2cc(C(=O)N3CCC4(CC3)CC4CNC(=O)c3cc4ccncc4o3)cn2)C1 (stereo not shown) [Example 304, N-[[6-[1-(1-acetylpyrrolidin-3-yl)pyrazole-4-carbonyl]-6-azaspiro[2.5]octan-2-yl]methyl]furo[2,3-c]pyridine-2-carboxamide]	31.3	32.9
CC(C)(C)OC(=O)N1CCC2(CC1)CC2CNC(=O)NCc1ccc2nccn2c1 (stereo not shown) [Example 392, tert-butyl 2-[(imidazo[1,2-a]pyridin-6-ylmethylcarbamoylamino)methyl]-6-azaspiro[2.5]octane-6-carboxylate]	699	
O=C(NCC1CC12CCN(C(=O)N1CCOCC1)CC2)N1Cc2ccncc2C1 (stereo not shown) [Example 395]	193	
CC(C)(O)CCC(=O)N1CCC2(CC1)CC2CNC(=O)c1cc2cnccc2[nH]1 (stereo not shown) [Example 397, N-[[6-(4-hydroxy-4-methyl-pentanoyl)-6-azaspiro[2.5]octan-2-yl]methyl]-1H-pyrrolo[3,2-c]pyridine-2-carboxamide]	412	
O=C(NCC1CC12CCN(C(=O)c1cnccc1C(F)(F)F)CC2)N1Cc2ccncc2C1 (stereo not shown) [Example 398]	12.5	
CC1(O)CC(CC(=O)N2CCC3(CC2)CC3CNC(=O)c2cc3cnccc3[nH]2)C1 (stereo not shown) [Example 400, N-[[6-[2-(3-hydroxy-3-methyl-cyclobutyl)acetyl]-6-azaspiro[2.5]octan-2-yl]methyl]-1H-pyrrolo[3,2-c]pyridine-2-carboxamide]	136	

Further lines, results first:

IC50 (NAMPT) [nM]	IC50 (A2780 cells) [nM]	Structure (SMILES)
2000	2000	CC(C)(C)NC(=O)C(=O)N1CCC2(CC1)CC2CNC(=O)c1cc2ccncc2o1 (stereo not shown) [Example 54, N-[[6-(2-(tert-butylamino)-2-oxo-acetyl]-6-azaspiro[2.5]octan-2-yl]methyl]furo[2,3-c]pyridine-2-carboxamide]
26.5	25.4	Cc1nc2cc(C(=O)N3CCC4(CC3)CC4CNC(=O)c3cc4ccncc4o3)ccc2[nH]1 (stereo not shown) [Example 263, N-[[6-(2-methyl-1H-benzimidazole-5-carbonyl)-6-azaspiro[2.5]octan-2-yl]methyl]furo[2,3-c]pyridine-2-carboxamide]
69.1	71.9	O=C(NCC1CC12CCN(C(=O)c1cccc3cnccc13)CC2)c1cc2ccncc2o1 (stereo not shown) [Example 268, N-[[6-(isoquinoline-5-carbonyl)-6-azaspiro[2.5]octan-2-yl]methyl]furo[2,3-c]pyridine-2-carboxamide]
2000	2000	CC(=O)CCC(=O)N1CCC2(CC1)CC2CNC(=O)c1cc2ccncc2o1 (stereo not shown) [Example 282, N-[[6-(4-oxopentanoyl)-6-azaspiro[2.5]octan-2-yl)methyl]furo[2,3-c]pyridine-2-carboxamide]
106	105	CC(C)(O)CC(=O)N1CCC2(CC1)CC2CNC(=O)c1cc2ccncc2o1 (stereo not shown) [Example 284, N-[[6-(3-hydroxy-3-methyl-butanoyl)-6-azaspiro[2.5]octan-2-yl]methyl]furo[2,3-c]pyridine-2-carboxamide]
60.6	60.6	O=C(CCc1nccs1)N1CCC2(CC1)CC2CNC(=O)N1Cc2ccncc2C1 (stereo not shown) [Example 288, N-[[6-(3-thiazol-2-ylpropanoyl)-6-azaspiro[2.5]octan-2-yl]methyl]-1,3-dihydiopyrrolo[3,4-c]pyridine-2-carboxamide]
693	693	Cc1n[nH]c(C)c1C(=O)N1CCC2(CC1)CC2CNC(=O)N1Cc2ccncc2C1 (stereo not shown) [Example 292, N-[[6-(3,5-dimethyl-1H-pyrazole-4-carbonyl)-6-azaspiro[2.5]octan-2-yl]methyl]-1,3-dihydropyrrolo[3,4-c)pyridine-2-carboxamide]
20.8	21.7	O=C(Cc1nccs1)N1CCC2(CC1)CC2CNC(=O)N1Cc2ccncc2C1 (stereo not shown) [Example 359, N-[[6-(2-thiazol-2-ylacetyl)-6-azaspiro[2.5]octan-2-yl]methyl]-1,3-dihydropyrrolo[3,4-c]pyridine-2-carboxamide]
557		CC(C)(C)OC(=O)N1CCC2(CC1)CC2CNC(=O)c1ccc2nccn2n1 (stereo not shown) [Example 402, tert-butyl 2-[(imidazo[1,2-b]pyridazine-6-carbonylamino)methyl]-6-azaspiro[2.5]octane-6-carboxylate]
13.1		O=C(Cc1cncnc1)N1CCC2(CC1)CC2CNC(=O)N1Cc2ccncc2C1 (stereo not shown) [Example 407]
121		O=C(NCC1CC12CCN(C(=O)c1ccccc1)CC2)c1cc2ccncc2o1 (stereo not shown) [Example 411, N-((6-benzoyl-6-azaspiro[2.5]octan-2-yl)methyl]furo[2,3-c]pyridine-2-carboxamide]
12.8		Cc1ncoc1C(=O)N1CCC2(CC1)CC2CNC(=O)N1Cc2ccncc2C1 (stereo not shown) [Example 415]
82		CC(C)OC(=O)N1CCC2(CC1)CC2CNC(=O)c1cc2ccncc2o1 (stereo not shown) [Example 416, isopropyl 2-[(furo[2,3-c]pyridine-2-carbonylamino)methyl]-6-azaspiro[2.5]octane-6-carboxylate]
50.6		CC1(OC(=O)N2CCC3(CC2)CC3CNC(=O)c2cc3ccncc3o2)COC1 (stereo not shown) [Example 417, (3-methyloxetan-3-yl) 2-[(furo[2,3-c]pyridine-2-carbonylamino)methyl]-6-azaspiro[2.5]octane-6-carboxylate]
